The Kd is the concentration at which binding is half-saturated. A low value points to higher affinity.

Chains of the proteins cited; added tags and fusions are not shown. Residues count along the entry.
UniProt A5F5Y3, 18-334 limits assumed: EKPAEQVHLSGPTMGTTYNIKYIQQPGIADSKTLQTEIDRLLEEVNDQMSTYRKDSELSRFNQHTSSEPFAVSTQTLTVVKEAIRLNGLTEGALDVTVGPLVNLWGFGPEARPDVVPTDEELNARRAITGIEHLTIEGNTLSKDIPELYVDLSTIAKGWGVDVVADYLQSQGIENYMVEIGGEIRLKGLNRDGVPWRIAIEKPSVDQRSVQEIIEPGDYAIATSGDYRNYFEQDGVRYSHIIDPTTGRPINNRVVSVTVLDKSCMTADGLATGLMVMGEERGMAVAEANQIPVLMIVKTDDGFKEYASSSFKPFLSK

Molecules are shown by their SMILES.

Among the data in PMC5655446 (PLoS ONE, 2017) are Kd values, retold here.

This experiment concerns the target V. cholerae ApbE (Vibrio cholerae, UniProt A5F5Y3). Description: biochemical.

Regarding `Cc1cc2nc3c(=O)[nH]c(=O)nc-3n(C[C@H](O)[C@H](O)[C@H](O)COP(=O)(O)OP(=O)(O)OC[C@H]3O[C@@H](n4cnc5c(N)ncnc54)[C@H](O)[C@@H]3O)c2cc1C` [FAD, flavin adenine dinucleotide], the Kd came to 2200 ± 1000 nM.
